# Results taken from US10988482B2, “IRAK4 inhibitor and use thereof” (BEIJING HANMI PHARMACEUTICAL CO., LTD., priority 2015, dated 2021).
# Chains of the proteins cited; added tags and fusions are not shown.
# UniProt Q9NWZ3, whole entry: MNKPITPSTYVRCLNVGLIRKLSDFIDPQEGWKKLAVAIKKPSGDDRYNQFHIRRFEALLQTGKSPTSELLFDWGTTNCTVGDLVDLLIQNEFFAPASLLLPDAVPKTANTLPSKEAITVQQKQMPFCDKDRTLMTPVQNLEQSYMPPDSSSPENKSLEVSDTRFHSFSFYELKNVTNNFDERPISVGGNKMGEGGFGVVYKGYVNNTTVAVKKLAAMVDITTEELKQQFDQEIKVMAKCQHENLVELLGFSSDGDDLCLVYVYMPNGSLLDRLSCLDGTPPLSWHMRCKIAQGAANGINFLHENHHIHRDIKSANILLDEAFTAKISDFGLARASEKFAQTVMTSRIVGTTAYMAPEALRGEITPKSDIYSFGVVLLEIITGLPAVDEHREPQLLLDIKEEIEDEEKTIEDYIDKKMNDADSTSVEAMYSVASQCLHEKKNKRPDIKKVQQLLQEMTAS
# Target: IRAK4 kinase (Homo sapiens (Human), UniProt Q9NWZ3)
# Test: IRAK4 kinase activity inhibition assay (ADP-Glo)
# Settings: 10 μM ATP, MBP substrate, 60 min at 25° C.
# Protocol: IRAK4 kinase (purchased from Life Technologies, Cat. No.: PR5612U) was diluted to 2 folds of the final concentration (the final concentration is 0.76 ng/μL) with reaction buffer (40 mM Tris-HCl, pH 7.5; 20 mM MgCl2; 0.1 mg/mL BSA; 1 mM DTT), and added to a 384-well plate at 5 μL/well. The test drugs were 10-fold serial diluted from 10 μM to set six concentration points and added to the test wells of the 384-well plate at 2.5 μL/well. After incubation for 10 min at 25° C., 10 μM of ATP and […] of an enzyme reaction substrate, myelin basic protein MBP (purchased from SignalChem, Cat. No.: M42-51N) were added at 2.5 µL/well, and reacted at 25° C. for 60 minutes. After the reaction was completed, the kinase activity assay was performed using the ADP-Glo™ kinase assay kit (purchased from Promega, Cat. No.: V9102) according to the manufacture's instruction, i.e., 10 μL of ADP-Glo reaction reagent was first added and reacted at 25° C. for 40 minutes, 10 μL of the solution to be tested was taken and mixed with 10 μL of ADP-Glo detection reagent, and reacted at 25° C. for 30 minutes. The kinase activity was then detected, and the IC50 values of the test drugs were calculated.
compound,measurement,value
CN1CCC(C(=O)c2ccc(Nc3nc(N[C@H]4CC[C@H](O)CC4)c4sccc4n3)cc2Cl)CC1,IC50,100 to 1000 nM
